From publication PMC3069143 (Analytical chemistry, 2011)

Tests used:
Calf thymus ds-DNA = settings: 0.2 mM substrate; either RLE or HLE; NADPH regenerating system
human hepatic cell lines = settings: ref Table S2 (SI); cited from earlier work

O=NN1CCCC1 [NPYR, N-nitrosopyrrolidine]
ECL produced relative to styrene (Calf thymus ds-DNA): 2–3 times
Comet assay OTM/conc. (human hepatic cell lines): small
